This assay has as its target GLP-1 receptor (UniProt P43220). Nature of the assay: cell-based or functional assay.

In the case of native exendin-4 (peptide), the EC50, real-time calcium mobilization assay (calcium flux, FLIPR) on cell line expressing native GLP-1 receptor; exendin-4 from Anaspec was determined as 0.075 nM and the EC50, real-time calcium mobilization assay (calcium flux, FLIPR) on cell line expressing native GLP-1 receptor; exendin-4 from Tocris was 0.11 nM.
